Patent US9459246B2, “Induced intercellular communication” (Nodality, Inc., priority 2009, dated 2016)

Tested on: PBMCs
Test: SCNP signaling in LPS-treated PBMCs with inhibitors (Example 14, FIGS. 22, 23)
Conditions: LPS plus inhibitor, 2 hours

C[C@@H]1CCN(C(=O)CC#N)C[C@@H]1N(C)c1ncnc2[nH]ccc12 [Tofacitinib]
inhibition of p-STAT1 in CD4+ T cells: 102%
